Test results published in article PMC10460844, “Real‐Time Monitoring of Multitarget Antimicrobial Mechanisms of Peptoids Using Label‐Free Imaging with Optical Diffraction Tomography” (Advanced Science, 2023).

Tested on: rat erythrocytes
Test: Hemolysis assay
Format: cell-based
Conditions: Table S2; 10% hemolysis in rat erythrocytes, PBS pH 7.4, 37 °C 60 min; mean of triplicate
Procedure: The hemolysis assay was performed using rat erythrocytes in phosphate‐buffered saline (PBS), as reported by Mendes et al.^[ [45] ^] Animal studies were approved by the Laboratory Animal Resource Center of Gwangju Institute of Science and Technology. Blood was collected from a 13‐week‐old male Sprague‐Dawley rat in tubes containing 158 USP units of sodium heparin to prevent coagulation and centrifuged at 1000 rpm for 10 min at 4 °C. Plasma was removed carefully and erythrocyte pellets were washed three times with PBS (35 mM phosphate, pH 7.4, 150 mM NaCl). Next, 150 µL of a 10% erythrocyte suspension was mixed with 50 µL of serially diluted peptoids (0–100 µM) in a 96‐well black polypropylene plates (Greiner, Kremsmünster, Austria). […] Aliquots (150 µL) of the supernatant were transferred to fresh 96‐well plates, and the absorbance of each well was measured at 540 nm using a microplate reader. Hemolysis induced by peptoids was calculated as the percentage value of Triton X‐100 lysed cells. The percentage of hemolysis by the extracts was calculated according to the following formula: % hemolysis = [(Abs 540 nm in the peptoid solution – Abs 540 nm in PBS) / (Abs 540 nm in 1% Triton X‐100 – Abs 540 nm in PBS)] × 100. […]

With `CC[C@H](C)[C@H](NC(=O)CN)C(=O)NCC(=O)N[C@@H](C)C(=O)N[C@H](C(=O)N[C@@H](CC(C)C)C(=O)N[C@@H](CCCCN)C(=O)N[C@H](C(=O)N[C@@H](CC(C)C)C(=O)N[C@H](C(=O)N[C@H](C(=O)NCC(=O)N[C@@H](CC(C)C)C(=O)N1CCC[C@H]1C(=O)N[C@@H](C)C(=O)N[C@@H](CC(C)C)C(=O)N[C@H](C(=O)N[C@@H](CO)C(=O)N[C@@H](Cc1c[nH]c2ccccc12)C(=O)N[C@H](C(=O)N[C@@H](CCCCN)C(=O)N[C@@H](CCCNC(=N)N)C(=O)N[C@@H](CCCCN)C(=O)N[C@@H](CCCNC(=N)N)C(=O)N[C@@H](CCC(N)=O)C(=O)N[C@@H](CCC(N)=O)C(N)=O)[C@@H](C)CC)[C@@H](C)CC)[C@@H](C)O)[C@@H](C)O)C(C)C)C(C)C` [Melittin, reference compound] the HC10 was < 3.1 µM.
